{"source": "patent US20130210899A1", "about": "“Method and Therapeutic for the Treatment and Regulation of Memory Formation” (The Regents of the University of California, priority 2010, published 2013)", "molecular_target": "T1, HDAC3 (Mus musculus, UniProt O88895)", "T1 construct": "from tissue; host or cells: dorsal hippocampus of C57BL/6 mice", "T1 sequence (O88895 1-428)": "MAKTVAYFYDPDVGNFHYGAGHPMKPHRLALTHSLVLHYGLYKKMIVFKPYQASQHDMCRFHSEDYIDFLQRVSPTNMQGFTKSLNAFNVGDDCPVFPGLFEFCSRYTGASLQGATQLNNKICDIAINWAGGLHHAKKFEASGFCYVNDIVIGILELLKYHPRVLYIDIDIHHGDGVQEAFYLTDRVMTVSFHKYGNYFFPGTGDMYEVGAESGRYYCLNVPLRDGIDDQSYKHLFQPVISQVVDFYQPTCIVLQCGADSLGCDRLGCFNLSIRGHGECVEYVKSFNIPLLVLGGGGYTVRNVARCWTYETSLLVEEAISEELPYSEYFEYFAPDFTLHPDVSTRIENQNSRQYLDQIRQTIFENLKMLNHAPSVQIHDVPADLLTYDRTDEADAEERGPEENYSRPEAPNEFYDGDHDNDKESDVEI", "experiment": "Immunohistochemistry of dorsal hippocampus 2 hours after intrahippocampal infusion", "type": "in vivo, C57BL/6 mice", "conditions": "1.25 ng/side intrahippocampal infusion", "protocol": "Two weeks after mice were infused with AAV-Cre or two hours after hippocampal infusion of the inhibitor, mice were anesthetized deeply with sodium pentobarbital (100 mg/kg, i.p.) and perfused transcardially with ice-cold PBS, pH 7.4, followed by ice-cold 4% paraformaldehyde in PBS, pH 7.4, using a peristaltic perfusion pump (Fisher Scientific). The brains were removed, postfixed overnight at 4° C., and then transferred to 30% sucrose for 48 hr at 4° C. Brains were frozen and cryocut to 20 μm coronal slices, and sections were stored in 0.1M PBS. Floating sections were rinsed in 0.1% Triton X-100 (Fisher Scientific) in PBS, rinsed in PBS, and then blocked for 1 hr at room temperature in 8% normal goat serum (NGS, Jackson ImmunoResearch Laboratories) with 0.3% Triton X-100 in PBS. Sections were rinsed in PBS and for single labeling they were incubated overnight at 4° C. in 2% NGS, 0.3% Triton X-100 in PBS with primary antibody. The sections were then rinsed in PBS and incubated for 2 hr at room temperature with goat anti-rabbit IgG-FITC secondary antibody (1:1000, Millipore Bioscience International). […]\nImages were acquired and using an Olympus (BX51, Japan) microscope using a 4× or 20× objective, CCD camera (QImaging), and QCapture Pro 6.0 software (QImaging) and quantified with ImageJ software (NIH). […]", "data": [{"smiles": "Cc1ccc(C(=O)NCCCCCC(=O)Nc2ccc(F)cc2N)cc1", "note": "[RGFP136, N-(6-(2-amino-4-fluorophenylamino)-6-oxohexyl)-4-methylbenzamide]", "values": [{"measurement": "HDAC3 nuclear immunoreactivity vs vehicle", "value": "similar"}]}]}
